# Ab-14 heavy chain CDR variants: yeast mating affinities

Target peptide (SARS-CoV-2 spike, HR2 region): PDVDLGDISGINAS

Parent: Ab-14, a human scFv built as VH, the linker GGGGSGGGGSGGGGS, VL. Only the CDRs of the heavy chain vary.
VH: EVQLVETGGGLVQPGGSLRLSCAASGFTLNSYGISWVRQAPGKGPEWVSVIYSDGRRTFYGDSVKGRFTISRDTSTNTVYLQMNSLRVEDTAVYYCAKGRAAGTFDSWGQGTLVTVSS
VL: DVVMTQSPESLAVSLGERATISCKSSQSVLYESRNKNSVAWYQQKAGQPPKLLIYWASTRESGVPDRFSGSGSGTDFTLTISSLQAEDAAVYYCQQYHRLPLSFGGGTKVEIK

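This is the validation round: designs drawn from the data on random variants, tested in the same kind of assay. Group labels follow the data file (Ctrl: baseline library sampled from a position-specific scoring matrix, with some repeated check sequences; Rand: our label for a block that the file lists under HC and that is probably the random mutants of the ten best first-round binders; En: ensemble of fine-tuned language models; GP: Gaussian process model; GPLM: also part of the Gaussian process libraries; HC: hill climbing; Gen: genetic algorithm; Gibbs: Gibbs sampling; a sequence that several methods proposed may carry one label only). The scFvs were displayed on barcoded MATa yeast, the peptide on MATalpha yeast. Binding brings cells together so that they mate, and sequencing counts the barcode pairs among the diploids. Read counts were normalised to the haploid input and turned into Kd by a linear fit to BCL2-family pairs of known affinity, for each replicate. Mating was done six times.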

Each variant is given by its three heavy chain CDRs, as the data file delimits them; those of the parent are GFTLNSYGIS, VIYSDGRRTFYGDSVK, GRAAGTFDS.
Scale: log10 of Kd in nM, estimated from mating counts; low values are strong binders.
The mean shown is taken over the replicates in which the pair was detected.
A pair that was not seen in any replicate is written "nd"; this usually means weak binding, but a binder can also be missed.
In the paper, a design with two or fewer of six values counts as a poor binder.
The range of this assay differs from that of the first round, and the authors advise against merging the two.
Of ten entries with the parent sequence, four were seen in most replicates (averages 0.34 to 2.37), three in one and three in none, so single entries are noisy.
Background: pairings of all heavy chain designs with three empty control strains gave a value in 1% of cases (median 2.08, 5th percentile 0.84). Values in that range, when seen in few replicates, are hard to tell from nonspecific mating.

The variant GFTLNSYGIS | VIYSDGRRTAYIDSVK | GQAAGTFDS [GPLM_HC] gave 0.59 (6 of 6 replicates).
The variant GFDLNEYGIS | VIYADGRRTAYSDSVK | GENAGFFDF [En_HC] gave 1.63 (6 of 6 replicates).
The variant GFSLNNYGIS | VIYSDGRRTFYSDSVK | GKAAGTFDS [GPLM_Gen] gave 0.30 (6 of 6 replicates).
The variant GFTLNSYGIS | VIYSDGRRTGYGDSVK | GRAAGTFDS [Ctrl] gave 2.32 (6 of 6 replicates).
The variant GFTLNSYGIS | VIYSDGLRTFYGDSVK | GRPIGRFDS [Ctrl] gave nd (0 of 6 replicates).
The variant LFSLNDYGIS | VIYSDGRRTFYSDSVK | GRAAGTFDS [Ctrl] gave 1.50 (6 of 6 replicates).
The variant GFQLNSYGIS | VIYADGRRTFYGDSVK | GEAAGTFDK [GP_Gibbs] gave -0.02 (6 of 6 replicates).
The variant GFTLNSYGIS | VIYSDGRRTFYGDSVK | GLACGTFDS [Ctrl] gave 0.97 (3 of 6 replicates).
The variant GFDLNEYGIS | VIYADGSRQAYADSVK | GENAGTFDV [En_Gen] gave -0.20 (6 of 6 replicates).
The variant GFLLNDYGIS | VIYSDGRRTYYGDSVK | GRAAGTFDS [GP_HC] gave 1.14 (5 of 6 replicates).
The variant GFDLNEYGIS | VIYADGMRTVYSDSVK | GNVAGTFDL [En_Gen] gave -0.10 (6 of 6 replicates).
The variant GFSLNEYGIS | VIYSDGRRTFYGDSVK | GQAAGTFDF [GPLM_Gen] gave -1.69 (3 of 6 replicates).
The variant GFSLNDYGIS | VIYSDGRRTFYGDSVK | GRAALTFDA [GPLM_HC] gave 2.05 (1 of 6 replicates).
The variant GFDLNEYGIS | VIYADGRRTAYSDSVK | GETAGTFDI [En_Gen] gave -0.68 (6 of 6 replicates).
The variant GFDLNEYGIS | VIYADGKRTAYADKVK | GNTAGTFDV [En_Gen] gave -0.59 (6 of 6 replicates).
The variant GFNLNEYGIS | VIYADGRRTFYSDSVK | GENGGTFDV [En_HC] gave 0.06 (6 of 6 replicates).
The variant GFQLNSYGIS | VIYSDGRRTFYSDSVK | GAAAGTFDS [GPLM_HC] gave 0.20 (6 of 6 replicates).
The variant GFDLNEYGIS | VIYADGMRTFYADSVK | GNNAGTFDI [En_Gen] gave nd (0 of 6 replicates).
The variant GFDLNSYGIS | VIYSDGRRTFYADRVK | GVAAGTFDS [GP_Gibbs] gave 0.43 (6 of 6 replicates).
The variant GFTLNQYGIS | VIYSDGRRTFYGDSVK | GRAAATFDS [Ctrl] gave nd (0 of 6 replicates).
The variant GFTLNEYGIS | VIYSDGRRTFYGDSVK | GREAGTFIS [GPLM_HC] gave nd (0 of 6 replicates).
The variant GFTLNSYGIS | VIYSDGRRTFYGDSVK | GRNCGTFDS [Ctrl] gave nd (0 of 6 replicates).
The variant GFDLNEYGIS | VIYADGVRTFYSDSVK | GQLAGTFDV [En_HC] gave -0.55 (6 of 6 replicates).
The variant GFDLNEYGIS | VIYADGSRTAYVDSVK | GNVAGTFDT [En_Gen] gave -0.16 (6 of 6 replicates).
The variant GFDLNSYGIS | VIYSDGRRTVYGDSVK | GRTAGTFDS [GPLM_Gen] gave -0.09 (6 of 6 replicates).
The variant GFVLNSYGIS | VIYSDGRRTFYGDSVV | GRAAGTFDS [Ctrl] gave nd (0 of 6 replicates).
The variant GETLNSYGIS | VIYSDGRRTFYGDSVK | GSVAGTFIS [Ctrl] gave 1.38 (6 of 6 replicates).
The variant GFDLNEYGIS | VIYADGRRKAYADDVK | GNVAGTFDV [En_Gen] gave -0.31 (5 of 6 replicates).
The variant GFDLDEYGIS | VIYADGQRTAYANSVK | GEVAGTFDV [En_Gen] gave -0.50 (6 of 6 replicates).
The variant YFQLNEYGIS | VIYSDGRRTFYGDSVK | GRTAGTFDS [GP_Gen] gave 1.89 (1 of 6 replicates).
The variant GITLNSYGIS | VIYSDGRRTFYGDSVK | GRLAGTFDS [Ctrl] gave nd (0 of 6 replicates).
The variant GYTLNEYGIS | VIYSDGRRTFYGDSVK | GRAAVTFDQ [GP_HC] gave nd (0 of 6 replicates).
The variant GFSLNSYGIS | VIYSDGRRTFYKDNVK | GRTAGTFDS [GP_Gen] gave 0.46 (6 of 6 replicates).
The variant GFDLNEYGIS | VIYADGHRTAYADSVK | GNVAGTFDV [En_Gen] gave -0.70 (6 of 6 replicates).
The variant GFTLNSYGIS | VIYSDGRRTFYKDSVK | GDAAGTFDS [GPLM_Gibbs] gave 1.10 (6 of 6 replicates).
The variant GFTLNSYGIS | VIYSDGRRTFYGDSVK | GRQAGTFCS [Ctrl] gave nd (0 of 6 replicates).
The variant GFTLNKYGIS | VIYSDGRRTQYGDSVK | GPAAKTFDQ [Ctrl] gave nd (0 of 6 replicates).
The variant GFDINDYGIS | VIYADGLRTSYSTNFK | GIIAGTFTS [En_Gibbs] gave -0.15 (6 of 6 replicates).
The variant GFDLDEYGIS | VIYADGMRTFYADSVK | GQNAGTFDI [En_Gen] gave -0.39 (4 of 6 replicates).
The variant GFDLNSYGIS | VIYSDGRRTFYGDQVK | GKNAGTFDS [GP_Gen] gave 0.16 (6 of 6 replicates).
The variant GFDLNSYGIS | VIYSDGRRTFYGDSVK | GTHAGQFDS [Ctrl] gave nd (0 of 6 replicates).
The variant GATLNSYGIS | VIYSDGRRTFYGDSVS | GRTAGTFDS [Ctrl] gave 1.21 (2 of 6 replicates).
The variant GFTLNEYLIS | VIYSDGRQWFYTDSVK | KRFAGTFDS [Rand] gave nd (0 of 6 replicates).
The variant GFGLNEYGIS | VIYSDGRRTFYGDSVK | GRMAGTFDS [GPLM_Gen] gave 0.92 (6 of 6 replicates).
The variant GFDLNEYGIS | VIYADGQRTAYSDSVK | GQNAGTFDI [En_Gen] gave -0.77 (6 of 6 replicates).
The variant GFNFNEYGIS | VIYADGKRTAYSESVK | GNSAGTMNH [En_Gibbs] gave nd (0 of 6 replicates).

From the AlphaSeq antibody data of Li et al. 2023 (doi:10.1038/s41467-023-39022-2), copy in the FLAb collection.